Measured values reported in ChEMBL document CHEMBL2448811, “Comparison of the accuracy of experimental and predicted pKa values of basic and acidic compounds” (Pharm Res, 2013).

Experiment: physchem

CC/C(=C(\c1ccccc1)c1ccc(OCCN(C)C)cc1)c1ccccc1 [TAMOXIFEN]
pKa: 8.71
